Data published in ChEMBL document CHEMBL5108070, “Selective and Cell-Active PBRM1 Bromodomain Inhibitors Discovered through NMR Fragment Screening” (J Med Chem, 2022).

By UniProt entry, the sequences of proteins in these tests, tags left out.
UniProt Q86U86, whole entry: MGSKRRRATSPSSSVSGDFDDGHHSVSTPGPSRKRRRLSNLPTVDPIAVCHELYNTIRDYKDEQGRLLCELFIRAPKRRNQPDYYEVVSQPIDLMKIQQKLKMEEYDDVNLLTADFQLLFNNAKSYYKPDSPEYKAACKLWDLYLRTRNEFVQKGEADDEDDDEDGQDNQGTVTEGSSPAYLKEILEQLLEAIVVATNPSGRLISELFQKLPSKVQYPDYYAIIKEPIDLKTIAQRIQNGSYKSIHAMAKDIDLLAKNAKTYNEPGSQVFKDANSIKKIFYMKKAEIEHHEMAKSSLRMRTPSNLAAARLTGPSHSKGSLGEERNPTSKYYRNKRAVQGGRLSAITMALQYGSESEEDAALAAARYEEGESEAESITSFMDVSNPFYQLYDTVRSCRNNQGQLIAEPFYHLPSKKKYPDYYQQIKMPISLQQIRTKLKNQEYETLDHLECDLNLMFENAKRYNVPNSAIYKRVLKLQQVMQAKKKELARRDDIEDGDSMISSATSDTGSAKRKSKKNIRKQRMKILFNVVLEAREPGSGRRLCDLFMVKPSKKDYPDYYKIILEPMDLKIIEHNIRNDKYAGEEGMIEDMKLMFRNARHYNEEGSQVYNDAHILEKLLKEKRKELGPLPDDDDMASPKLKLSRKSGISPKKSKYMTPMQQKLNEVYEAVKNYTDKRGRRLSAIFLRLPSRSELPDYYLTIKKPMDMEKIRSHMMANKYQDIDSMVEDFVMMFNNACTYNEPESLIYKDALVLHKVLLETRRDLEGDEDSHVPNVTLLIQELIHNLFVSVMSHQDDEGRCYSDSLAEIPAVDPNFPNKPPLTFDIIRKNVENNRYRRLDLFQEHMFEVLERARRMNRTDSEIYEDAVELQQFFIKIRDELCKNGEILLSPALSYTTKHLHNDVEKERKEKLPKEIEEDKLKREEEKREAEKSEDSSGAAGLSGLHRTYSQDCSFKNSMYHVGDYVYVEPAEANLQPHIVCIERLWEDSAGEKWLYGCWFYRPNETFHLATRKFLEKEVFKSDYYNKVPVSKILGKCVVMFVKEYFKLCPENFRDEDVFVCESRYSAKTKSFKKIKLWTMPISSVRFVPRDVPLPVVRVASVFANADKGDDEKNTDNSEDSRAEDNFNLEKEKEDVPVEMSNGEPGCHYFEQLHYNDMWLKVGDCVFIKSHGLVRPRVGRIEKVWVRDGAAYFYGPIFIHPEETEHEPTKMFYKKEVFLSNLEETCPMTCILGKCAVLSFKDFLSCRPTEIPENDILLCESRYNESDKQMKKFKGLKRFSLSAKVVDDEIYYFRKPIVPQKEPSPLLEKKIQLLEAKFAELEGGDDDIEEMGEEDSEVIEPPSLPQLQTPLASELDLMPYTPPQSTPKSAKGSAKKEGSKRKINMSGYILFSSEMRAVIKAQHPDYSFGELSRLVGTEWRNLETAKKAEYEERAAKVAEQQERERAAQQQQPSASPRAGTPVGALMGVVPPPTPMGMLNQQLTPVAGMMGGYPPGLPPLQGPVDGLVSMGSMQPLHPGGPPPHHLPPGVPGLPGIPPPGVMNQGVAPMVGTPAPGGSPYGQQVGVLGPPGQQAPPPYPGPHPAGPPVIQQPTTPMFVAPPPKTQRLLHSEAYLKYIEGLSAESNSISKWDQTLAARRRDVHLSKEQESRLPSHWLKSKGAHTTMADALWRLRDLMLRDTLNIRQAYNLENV

Target: Protein polybromo-1 (Homo sapiens, UniProt Q86U86)
Conditions: dose 100.0 µM

- ΔTm: 11 °C
Structure (SMILES): CN(C)/C=C1\CCn2c1nc(=O)c1c(Cl)cccc12
